Here are results for 7 molecules from PubChem BioAssay AID504847 (National Center for Advancing Translational Sciences (NCATS), 2011).

Protein sequences, listed by entry. Tags and fused reporters are not part of them. Lines headed by an entry give the natural chain unless they say otherwise; changes in a name come on top.
UniProt P11473: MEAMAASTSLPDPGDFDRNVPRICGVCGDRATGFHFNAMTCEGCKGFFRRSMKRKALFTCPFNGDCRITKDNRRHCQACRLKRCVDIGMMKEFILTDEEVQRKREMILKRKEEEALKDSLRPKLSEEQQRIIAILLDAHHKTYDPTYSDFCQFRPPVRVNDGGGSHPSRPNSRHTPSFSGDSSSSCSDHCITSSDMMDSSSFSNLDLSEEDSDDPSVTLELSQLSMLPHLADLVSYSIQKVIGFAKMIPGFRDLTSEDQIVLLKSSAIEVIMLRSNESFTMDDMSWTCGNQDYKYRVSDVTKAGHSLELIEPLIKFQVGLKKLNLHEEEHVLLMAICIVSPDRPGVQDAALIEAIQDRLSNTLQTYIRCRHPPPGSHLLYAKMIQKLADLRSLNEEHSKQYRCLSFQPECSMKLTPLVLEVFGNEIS

The entries are a selection whose mix differs from that of the whole data set. Records with an inconclusive call do not appear. Active and inactive are the calls of the source. The call rests on the fitted dose curve; in most records, active means well fitted inhibition curve with a large enough effect; inconclusive means small, poorly fitted or top-dose-only effect, or another doubt; inactive means no such curve, though single readings can be large or run the other way.
Potency means the concentration at half of the fitted maximal effect.

The target of this test is Vitamin D3 receptor (Homo sapiens) (UniProt P11473). Nature of the test: Inhibitors of the vitamin D receptor (VDR): qHTS. As to conditions: VDR-SRC2-3 peptide fluorescence polarization, 2 h.
As to `O=[N+]([O-])CC(O)c1ccc([N+](=O)[O-])cc1` (configuration not stated), the Potency was active: 50.1 µM.

`O=P(Nc1nccs1)(c1ccccc1)c1nc2ccccc2s1` (configuration not stated): the Potency was active: 44.7 µM.

For `CS(=O)(=O)c1cc([N+](=O)[O-])c2no[n+]([O-])c2c1`, the Potency was active: 25.1 µM.

`Cc1cc(SC(NC=O)C(Cl)(Cl)Cl)ncn1` (configuration not stated): the Potency was active: 70.8 µM.

As for `O=P(/N=c1/nc(-c2ccccc2)n(-c2ccccc2)s1)(Nc1ccccc1)Nc1ccccc1`, the Potency was active: 20 µM.

As for `O=C(O)c1ccccc1[As](=O)(O)O`, the Potency was active: 44.7 µM.

In the case of `Cc1cc(SC(NC(=O)c2ccc(F)cc2)C(Cl)(Cl)Cl)ncn1` (configuration not stated), the Potency was active: 22.4 µM.
